The target of this experiment is 5-hydroxytryptamine receptor 7 (Homo sapiens, UniProt P34969).

Protein sequences, listed by entry. Tags and fused reporters are not part of them.
UniProt P34969, whole entry: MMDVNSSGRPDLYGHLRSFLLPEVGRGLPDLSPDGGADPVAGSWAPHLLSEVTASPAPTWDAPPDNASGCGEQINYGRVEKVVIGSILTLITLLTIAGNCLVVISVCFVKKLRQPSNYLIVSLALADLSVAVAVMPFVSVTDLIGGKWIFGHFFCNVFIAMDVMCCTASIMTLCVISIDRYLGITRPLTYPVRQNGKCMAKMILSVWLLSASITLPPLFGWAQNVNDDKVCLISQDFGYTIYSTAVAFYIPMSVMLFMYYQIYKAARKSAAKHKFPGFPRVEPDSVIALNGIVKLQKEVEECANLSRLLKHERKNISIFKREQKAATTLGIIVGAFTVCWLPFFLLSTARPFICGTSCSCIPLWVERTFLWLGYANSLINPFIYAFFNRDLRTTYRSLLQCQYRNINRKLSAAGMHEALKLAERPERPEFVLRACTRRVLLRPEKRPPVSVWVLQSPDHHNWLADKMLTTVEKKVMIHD

The values below come from BindingDB's records for doi:10.1038/sj.bjp.0701336 (Roche Bioscience, 1997).

The structures appear in SMILES notation.

The term Ki denotes a measure of affinity in units of concentration, obtained from inhibition or displacement.

On to `CCCN(CCC)C1CCc2cccc(O)c2C1` (stereo unspecified), for which the affinity corresponds to a Ki of 0.141 µM.
